Drawing on ChEMBL document CHEMBL3352256, “Structural basis for HTLV-1 protease inhibition by the HIV-1 protease inhibitor indinavir” (J Med Chem, 2014), this text covers Ki for one molecule.

In general, Ki refers to the equilibrium dissociation constant of an inhibitor or competing ligand from its target. A higher Ki goes with lower affinity.

This test addresses Protease (Human immunodeficiency virus 1, UniProt Q9YQ12). Put plainly: Inhibition of HIV1 protease.

Consider `CC(C)(C)NC(=O)[C@@H]1CN(Cc2cccnc2)CCN1C[C@@H](O)C[C@@H](Cc1ccccc1)C(=O)N[C@H]1c2ccccc2C[C@H]1O`, for which the affinity, expressed as Ki, was 0.54 nM.
